IC50 and EC50 data for 17 compounds are collected here from patent US11634396B2 (priority 2021, dated 2023).

Amino acid sequences for entries named in this document (tags omitted). A change or cut given only in a name is not applied to a line headed by its entry.
UniProt P35372, whole entry: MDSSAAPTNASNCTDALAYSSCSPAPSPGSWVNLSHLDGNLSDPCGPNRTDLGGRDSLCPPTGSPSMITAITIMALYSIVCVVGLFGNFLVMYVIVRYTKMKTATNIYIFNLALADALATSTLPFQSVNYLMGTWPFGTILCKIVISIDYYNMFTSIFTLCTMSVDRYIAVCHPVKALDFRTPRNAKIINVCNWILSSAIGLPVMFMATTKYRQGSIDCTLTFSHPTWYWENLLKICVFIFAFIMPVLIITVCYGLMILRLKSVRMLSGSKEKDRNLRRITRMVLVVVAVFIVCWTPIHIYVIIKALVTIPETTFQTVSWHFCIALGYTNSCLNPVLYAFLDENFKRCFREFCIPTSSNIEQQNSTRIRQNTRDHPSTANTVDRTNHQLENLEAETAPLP
UniProt P41143, whole entry: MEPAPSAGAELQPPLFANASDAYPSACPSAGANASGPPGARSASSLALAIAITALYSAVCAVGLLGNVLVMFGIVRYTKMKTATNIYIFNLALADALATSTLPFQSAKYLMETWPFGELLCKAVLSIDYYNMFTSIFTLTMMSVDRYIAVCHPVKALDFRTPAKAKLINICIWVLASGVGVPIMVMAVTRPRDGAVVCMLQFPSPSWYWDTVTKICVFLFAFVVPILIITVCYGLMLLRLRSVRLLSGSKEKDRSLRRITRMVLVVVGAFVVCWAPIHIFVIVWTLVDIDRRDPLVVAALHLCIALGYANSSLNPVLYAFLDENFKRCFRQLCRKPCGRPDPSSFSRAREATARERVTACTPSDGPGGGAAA
UniProt P41145: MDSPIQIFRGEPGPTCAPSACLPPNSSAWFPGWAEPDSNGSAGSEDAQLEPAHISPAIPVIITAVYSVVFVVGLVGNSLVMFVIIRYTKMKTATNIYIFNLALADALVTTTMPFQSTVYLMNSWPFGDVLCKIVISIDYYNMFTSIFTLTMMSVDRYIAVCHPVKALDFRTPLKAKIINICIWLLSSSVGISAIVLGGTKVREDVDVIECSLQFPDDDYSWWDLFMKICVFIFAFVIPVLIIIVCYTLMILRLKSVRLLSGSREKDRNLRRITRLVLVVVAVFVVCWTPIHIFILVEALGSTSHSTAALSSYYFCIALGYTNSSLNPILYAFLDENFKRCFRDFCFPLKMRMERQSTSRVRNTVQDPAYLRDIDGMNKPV

The target in one assay is human mOR (Homo sapiens (Human), UniProt P35372). In words: cell-based. As to the method: (§1) CHO Tag-lite human mOR stable cell line from Cisbio (NCBI accession number: NM_000914.3, Bedford, Mass.) were seeded and grown to approximately 80% confluence in Ham F-12 with 10% FBS, 50 U/ml penicillin, 50 μg/ml streptomycin, 2 mM Hepes, and 1 mg/ml geneticin (Invitrogen, Carlsbad, Calif.). Cells were then harvested using accutase (Corning. Coming, N.Y.), centrifuged at 1300 RPM for 5 min, and plated at 5000 cells per 5 μL per well in a 5× dilution of stimulation buffer consisting of the HTRF cAMP Gi kit, water and IBMX at 0.5 mM (Cisbio, Bedford, Mass.) in white HTRF low volume 384 well plates (Cisbio, Bedford, Mass.). Plates were then incubated at 37° C. in 5% CO2 for 10 minutes. For the agonist assay, forskolin was added to a final concentration of 4 μM. […] Test compounds were dissolved in DMSO and water, and then serially diluted to working concentrations such that the concentration of DMSO was less than 0.1%. Diluted test compounds were added at 2.5 μL per well, and plates were incubated at 37° C., and 5% CO2 for 15 minutes, and then at room temperature for 15 minutes. Next 5 μl/well of cAMP Eu-cryptate and 5 μl/well of anti-cAMP-d2 (both diluted 1:20 in lysis buffer) were added, and plates were incubated at room temperature for 1 hour. Following incubation, plates were read in a Synergy Neo2 multi-mode reader (Biotek, Winooski, Vt.). […] For the agonist assay, data was normalized using the maximal DAMGO response. Measurements were performed in triplicate and the dose response was fit using nonlinear regression.

A further assay has as its target human dOR (Homo sapiens (Human), UniProt P41143). The experiment in a line: cell-based. The following applies: dOR cAMP Agonist Assay EC50, CHO Tag-lite human dOR stable cell line; forskolin. Here is the method: as §1
Another assay has as its target kOR (OPRK1) (Homo sapiens (Human), UniProt P41145). The experiment in a line: KOR β-Arrestin antagonist assay (Tango OPRK1-bla U2OS cells). It counts as cell-based. An excerpt:
KOR β-Arrestin Agonist and Antagonist assays were preformed using the Tango™ OPRK1-bla U2OS cells from Invitrogen and purchased from ThermoFisher, catalog number K1576.

Structures are written as SMILES. pEC50, pIC50: −log10 of the molar value. Some results are limits rather than exact numbers.

As a reminder, the pIC50 is the negative decadic logarithm of the IC50, by convention in mol/L. The pEC50 is the EC50 on a negative log10 scale, so that one unit is a factor of ten. As to `Cc1c(C[C@@H](CNC(=O)C[C@H](C)c2ccccc2)N(C)C)ccc2[nH]c(=O)oc12` [Compound 171, (3S)-N-[(2S)-2-(dimethylamino)-3-(7-methyl-2-oxo-2,3-dihydro-1,3-benzoxazol-6-yl)propyl]-3-phenylbutanamide], the pIC50 on human mOR was above 6.52. In addition, the pEC50 on human dOR is below 5.52.

As for `C[C@H](CC(=O)NC[C@H](Cc1ccc(O)cc1)N(C)C)c1ccccc1` [Compound 320, (R)-N-((S)-2-(dimethylamino)-3-(4-hydroxyphenyl)propyl)-3-phenylbutanamide], the pIC50 against kOR (OPRK1) and at human mOR was above 6.52 throughout.

With `CNC(=O)c1ccc(C[C@@H](CNC(=O)C[C@H](C)c2ccccc2)N(C)C)cc1F` [Compound 167, 4-((S)-2-(dimethylamino)-3-((S)-3-phenylbutanamido)propyl)-2-fluoro-N-methylbenzamide], the pIC50 on human mOR was below 5.52. For the same compound, the pEC50 at human dOR was above 6.52.

With `C[C@H](CC(=O)NC[C@H](Cc1ccc(C(N)=O)cc1)N(C)C)c1ccccc1` [Compound 98, 4-((S)-2-(dimethylamino)-3-((R)-3-phenylbutanamido)propyl)benzamide], the pIC50 on human mOR is below 5.52.

Regarding `C[C@@H](CC(=O)NC[C@H](Cc1ccc(C(N)=O)cc1Cl)N(C)C)c1ccccc1` [Compound 15, 3-chloro-4-((S)-2-(dimethylamino)-3-((S)-3-phenylbutanamido)propyl)benzamide], the pIC50 at kOR (OPRK1) and on human mOR was above 6.52 in each case. Further, at human dOR, the pEC50 is above 6.52.

Turning to `CNC(=O)c1ccc(C[C@@H](CNC(=O)C[C@@H](C)c2ccccc2)N(C)C)cc1Cl` [Compound 149, 2-chloro-4-((S)-2-(dimethylamino)-3-((R)-3-phenylbutanamido)propyl)-N-methylbenzamide], the pIC50 at human mOR is above 6.52. The pEC50 at human dOR was above 6.52.

As for `C[C@H](CC(=O)NC[C@H](Cc1ccc(C(N)=O)cc1Cl)N(C)C)c1ccccc1` [Compound 14, 3-chloro-4-((S)-2-(dimethylamino)-3-((R)-3-phenylbutanamido)propyl)benzamide], the negative logarithm of the IC50 (pIC50) at kOR (OPRK1) was 5.52 to 6.52; on human mOR it was above 6.52. On human dOR, the pEC50 is above 6.52.

For the compound `CNC(=O)c1ccc(C[C@@H](CNC(=O)C[C@H](C)c2ccccc2)n2ccnc2)cc1F` [Compound 161, 44-((S)-2-(1H-imidazol-1-yl)-3-((S)-3-phenylbutanamido)propyl)-2-fluoro-N-methylbenzamide], the pIC50 at human mOR is below 5.52. In addition, the pEC50 on human dOR is below 5.52.

Regarding `C[C@H](CC(=O)NC[C@H](Cc1ccc(O)c(Cl)c1)N(C)C)c1ccccc1` [Compound 289, (R)-N-((S)-3-(3-chloro-4-hydroxyphenyl)-2-(dimethylamino)propyl)-3-phenylbutanamide], the pIC50 against kOR (OPRK1) is 5.52 to 6.52; on human mOR, above 6.52.

On to `Cc1c(C[C@@H](CNC(=O)C[C@H](C)c2ccccc2)N(C)C)ccc2[nH]ncc12` [Compound 198, (S)-N-((S)-2-(dimethylamino)-3-(4-methyl-1H-indazol-5-yl)propyl)-3-phenylbutanamide], for which the pIC50 at human mOR is above 6.52. Further, the pEC50 at human dOR is below 5.52.

Regarding `C[C@@H](CC(=O)NC[C@H](Cc1ccc(O)c(Cl)c1)N(C)C)c1ccccc1` [Compound 288, (S)-N-((S)-3-(3-chloro-4-hydroxyphenyl)-2-(dimethylamino)propyl)-3-phenylbutanamide], the pIC50 on kOR (OPRK1) was 5.52 to 6.52; on human mOR it was above 6.52. For the same compound, on human dOR, the pEC50 was above 6.52.

As for `Cc1c(C[C@@H](CNC(=O)C[C@H](C)c2ccccc2)N(C)C)ccc2c1CC(=O)N2` [Compound 181, (3S)-N-[(2S)-2-(dimethylamino)-3-(4-methyl-2-oxo-2,3-dihydro-1H-indol-5-yl)propyl]-3-phenylbutanamide], the pEC50 at human dOR was below 5.52.

`C[C@@H](CC(=O)NC[C@H](Cc1ccc2[nH]ncc2c1)N1CCCC1)c1ccccc1` [Compound 222, (S)-N-((S)-3-(1H-indazol-5-yl)-2-(pyrrolidin-1-yl)propyl)-3-phenylbutanamide]: the pIC50 on human mOR was above 6.52. Further, the pEC50 at human dOR is below 5.52.

`C[C@@H](CC(=O)NC[C@H](Cc1ccc(O)cc1)N(C)C)c1ccccc1` [Compound 321, (S)-N-((S)-2-(dimethylamino)-3-(4-hydroxyphenyl)propyl)-3-phenylbutanamide]: the pIC50 on kOR (OPRK1) was 5.52 to 6.52; at human mOR, above 6.52.

For `C[C@@H](CC(=O)NC[C@H](Cc1c(F)cc(O)cc1F)N(C)C)c1ccccc1` [Compound 240, (S)-N-((S)-3-(2,6-difluoro-4-hydroxyphenyl)-2-(dimethylamino)propyl)-3-phenylbutanamide], the pIC50 on kOR (OPRK1) and on human mOR was above 6.52 in each case.

In the case of `CNC(=O)c1ccc(C[C@@H](CNC(=O)C[C@@H](c2ccc(Cl)cn2)C2(C(F)(F)F)CC2)N(C)C)c(C)c1` [Compound 137, 4-((S)-3-((R)-3-(5-chloropyridin-2-yl)-3-(1-(trifluoromethyl)cyclopropyl)propanamido)-2-(dimethylamino)propyl)-N,3-dimethylbenzamide], the pIC50 at human mOR is above 6.52.

With `CNC(=O)c1ccc(C[C@@H](CNC(=O)C[C@H](c2ccc(Cl)cn2)C2(C(F)(F)F)CC2)N(C)C)c(C)c1` [Compound 138, 4-((S)-3-((S)-3-(5-chloropyridin-2-yl)-3-(1-(trifluoromethyl)cyclopropyl)propanamido)-2-(dimethylamino)propyl)-N,3-dimethylbenzamide], the negative-log IC50 (pIC50) on human mOR was above 6.52.
